The numbers were not newly measured in PMC4408839, which cites them from elsewhere.

Sequences of proteins named here, by UniProt entry; tags and fusion partners are left off. Residues count along the entry.
UniProt O88917, 25-1515: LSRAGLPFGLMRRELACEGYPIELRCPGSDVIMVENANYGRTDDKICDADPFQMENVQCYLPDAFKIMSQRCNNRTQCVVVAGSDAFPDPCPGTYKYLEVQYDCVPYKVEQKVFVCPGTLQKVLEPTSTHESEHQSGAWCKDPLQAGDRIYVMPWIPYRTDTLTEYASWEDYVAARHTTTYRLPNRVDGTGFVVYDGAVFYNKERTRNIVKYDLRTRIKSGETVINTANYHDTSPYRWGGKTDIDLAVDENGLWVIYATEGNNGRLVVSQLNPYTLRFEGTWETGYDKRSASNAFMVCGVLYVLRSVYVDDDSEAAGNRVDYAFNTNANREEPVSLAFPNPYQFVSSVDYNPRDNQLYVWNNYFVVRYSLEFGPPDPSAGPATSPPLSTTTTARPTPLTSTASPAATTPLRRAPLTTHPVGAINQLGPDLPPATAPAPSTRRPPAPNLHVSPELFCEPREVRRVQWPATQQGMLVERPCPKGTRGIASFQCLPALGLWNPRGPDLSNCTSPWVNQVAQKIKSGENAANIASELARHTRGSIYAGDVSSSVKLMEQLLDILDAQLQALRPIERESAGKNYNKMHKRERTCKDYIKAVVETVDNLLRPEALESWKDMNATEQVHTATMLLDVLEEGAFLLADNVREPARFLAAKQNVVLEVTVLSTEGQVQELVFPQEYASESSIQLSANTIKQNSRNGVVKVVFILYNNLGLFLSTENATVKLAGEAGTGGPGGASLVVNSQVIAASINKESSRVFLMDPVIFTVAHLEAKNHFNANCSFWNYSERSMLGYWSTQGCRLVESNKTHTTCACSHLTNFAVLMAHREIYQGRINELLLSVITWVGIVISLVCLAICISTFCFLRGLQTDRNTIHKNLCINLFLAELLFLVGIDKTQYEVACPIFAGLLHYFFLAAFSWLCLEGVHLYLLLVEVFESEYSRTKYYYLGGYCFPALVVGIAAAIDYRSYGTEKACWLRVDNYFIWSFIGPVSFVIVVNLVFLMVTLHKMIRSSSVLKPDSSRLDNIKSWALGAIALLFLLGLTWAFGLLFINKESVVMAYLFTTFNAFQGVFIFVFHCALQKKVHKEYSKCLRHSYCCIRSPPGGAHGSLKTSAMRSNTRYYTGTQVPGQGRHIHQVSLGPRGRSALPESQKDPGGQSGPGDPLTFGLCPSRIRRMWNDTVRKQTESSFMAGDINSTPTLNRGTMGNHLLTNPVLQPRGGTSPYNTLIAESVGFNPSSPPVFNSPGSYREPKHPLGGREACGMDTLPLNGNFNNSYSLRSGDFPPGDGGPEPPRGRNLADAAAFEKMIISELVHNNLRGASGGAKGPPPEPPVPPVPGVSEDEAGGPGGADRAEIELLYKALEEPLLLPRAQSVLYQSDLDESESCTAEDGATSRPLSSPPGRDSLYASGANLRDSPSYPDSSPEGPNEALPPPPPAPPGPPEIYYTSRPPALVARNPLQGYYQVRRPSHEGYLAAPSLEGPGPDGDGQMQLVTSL

This data set has as its target latrophilin-1 (Rattus norvegicus) (UniProt O88917).

Regarding teneurin-2 (from UniProt Q9NT68), the Kd was under 2 nM.

As usually defined, the Kd is the free concentration of one partner at which half of the binding sites on the other are occupied at equilibrium, for simple one-to-one binding.
